Our source for the Efficacy values is ChEMBL document CHEMBL1139460 (J Med Chem, 2005).

By UniProt entry, the sequences of proteins in these tests, tags left out. Where a name states a change or a piece, a line headed by the entry shows the natural chain unless it says otherwise.
UniProt P18507: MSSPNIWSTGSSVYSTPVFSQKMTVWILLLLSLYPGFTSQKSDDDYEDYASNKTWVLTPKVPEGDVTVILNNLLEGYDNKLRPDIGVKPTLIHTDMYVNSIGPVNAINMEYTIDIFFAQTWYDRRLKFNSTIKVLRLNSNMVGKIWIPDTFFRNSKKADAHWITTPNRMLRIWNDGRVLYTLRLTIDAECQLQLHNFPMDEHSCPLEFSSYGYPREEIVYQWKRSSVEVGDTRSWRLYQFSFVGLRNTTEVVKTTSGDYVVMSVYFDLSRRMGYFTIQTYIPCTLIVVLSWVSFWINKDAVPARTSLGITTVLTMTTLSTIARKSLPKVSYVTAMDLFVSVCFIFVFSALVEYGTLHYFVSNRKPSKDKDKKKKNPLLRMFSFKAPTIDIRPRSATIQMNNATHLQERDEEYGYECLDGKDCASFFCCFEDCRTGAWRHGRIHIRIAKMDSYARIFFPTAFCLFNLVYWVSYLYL
UniProt P28472: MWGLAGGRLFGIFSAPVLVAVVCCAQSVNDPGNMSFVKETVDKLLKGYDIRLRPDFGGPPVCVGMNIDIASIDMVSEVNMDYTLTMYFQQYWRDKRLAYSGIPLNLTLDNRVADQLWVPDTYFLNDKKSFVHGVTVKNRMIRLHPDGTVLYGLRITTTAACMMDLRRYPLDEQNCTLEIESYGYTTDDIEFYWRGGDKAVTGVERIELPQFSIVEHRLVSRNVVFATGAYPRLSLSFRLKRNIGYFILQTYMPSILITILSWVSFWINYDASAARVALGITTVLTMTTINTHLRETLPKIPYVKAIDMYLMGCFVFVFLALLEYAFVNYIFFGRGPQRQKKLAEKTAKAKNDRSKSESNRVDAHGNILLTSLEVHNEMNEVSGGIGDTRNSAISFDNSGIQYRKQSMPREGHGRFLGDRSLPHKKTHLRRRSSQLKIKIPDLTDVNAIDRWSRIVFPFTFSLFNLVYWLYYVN
UniProt P31644: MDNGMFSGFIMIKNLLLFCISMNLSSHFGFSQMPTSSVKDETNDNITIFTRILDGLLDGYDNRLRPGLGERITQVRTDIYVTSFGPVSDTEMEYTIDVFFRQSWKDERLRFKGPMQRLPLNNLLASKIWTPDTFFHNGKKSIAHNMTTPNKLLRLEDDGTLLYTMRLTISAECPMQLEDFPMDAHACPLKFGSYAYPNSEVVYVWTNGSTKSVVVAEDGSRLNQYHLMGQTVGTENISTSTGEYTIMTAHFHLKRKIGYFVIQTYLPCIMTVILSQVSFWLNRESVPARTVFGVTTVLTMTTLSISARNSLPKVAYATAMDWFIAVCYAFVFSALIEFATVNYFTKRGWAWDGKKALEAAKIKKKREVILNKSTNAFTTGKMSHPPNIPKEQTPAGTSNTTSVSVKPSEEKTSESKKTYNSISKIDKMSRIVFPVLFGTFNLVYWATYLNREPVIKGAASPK

The target in this test is GABA-A receptor; alpha-5/beta-3/gamma-2 (Homo sapiens) (UniProt P18507+P28472+P31644). As to the kind of experiment: Efficacy at human recombinant GABAA alpha-5-beta-3-gamma-2 receptor. It is filed as protein-complex assay.

`CCn1ncnc1COc1nn2c(-c3ccccc3F)nnc2cc1C(C)(C)C` [MK-0777]: the Efficacy was determined as 6%.
